Results: ChEMBL document CHEMBL3352357, “Synthesis and pharmacological evaluation of 5-pyrrolidinylquinoxalines as a novel class of peripherally restricted κ-opioid receptor agonists” (J Med Chem, 2014)
Activity calls are given as the source filed them. No cut-off for these calls is given here.

Sequences of proteins named here, by UniProt entry; tags and fusion partners are left off. A change or cut given only in a name is not applied to a line headed by its entry.
UniProt P41143, whole entry, looked up: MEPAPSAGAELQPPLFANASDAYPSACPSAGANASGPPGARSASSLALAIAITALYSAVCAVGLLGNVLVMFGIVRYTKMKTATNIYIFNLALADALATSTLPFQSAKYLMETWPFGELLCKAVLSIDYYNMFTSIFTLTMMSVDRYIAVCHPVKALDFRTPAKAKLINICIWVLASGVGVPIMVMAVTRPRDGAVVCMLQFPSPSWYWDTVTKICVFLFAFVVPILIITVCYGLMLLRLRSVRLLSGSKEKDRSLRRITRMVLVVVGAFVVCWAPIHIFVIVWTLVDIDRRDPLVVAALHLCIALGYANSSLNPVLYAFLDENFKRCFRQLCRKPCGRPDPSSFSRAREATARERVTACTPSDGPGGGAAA
UniProt P41144: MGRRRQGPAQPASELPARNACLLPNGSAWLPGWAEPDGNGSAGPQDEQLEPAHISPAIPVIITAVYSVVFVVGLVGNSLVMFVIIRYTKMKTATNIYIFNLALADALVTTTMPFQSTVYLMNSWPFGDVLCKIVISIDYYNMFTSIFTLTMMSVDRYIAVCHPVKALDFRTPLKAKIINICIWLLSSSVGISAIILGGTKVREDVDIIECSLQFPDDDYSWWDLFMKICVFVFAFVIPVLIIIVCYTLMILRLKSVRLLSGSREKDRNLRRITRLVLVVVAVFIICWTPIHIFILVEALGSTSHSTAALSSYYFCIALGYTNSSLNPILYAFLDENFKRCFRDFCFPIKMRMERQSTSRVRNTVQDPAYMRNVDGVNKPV
UniProt P35372, whole entry, looked up: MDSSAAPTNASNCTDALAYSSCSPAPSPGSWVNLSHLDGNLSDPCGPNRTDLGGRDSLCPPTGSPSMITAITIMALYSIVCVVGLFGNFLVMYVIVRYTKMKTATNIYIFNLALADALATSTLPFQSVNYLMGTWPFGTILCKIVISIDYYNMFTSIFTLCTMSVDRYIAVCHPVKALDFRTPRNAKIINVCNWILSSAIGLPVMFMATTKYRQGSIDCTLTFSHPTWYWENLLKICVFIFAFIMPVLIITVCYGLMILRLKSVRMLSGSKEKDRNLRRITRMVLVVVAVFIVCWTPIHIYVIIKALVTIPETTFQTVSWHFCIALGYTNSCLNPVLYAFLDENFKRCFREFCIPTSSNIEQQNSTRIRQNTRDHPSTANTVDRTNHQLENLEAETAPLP
UniProt Q60492, whole entry, looked up: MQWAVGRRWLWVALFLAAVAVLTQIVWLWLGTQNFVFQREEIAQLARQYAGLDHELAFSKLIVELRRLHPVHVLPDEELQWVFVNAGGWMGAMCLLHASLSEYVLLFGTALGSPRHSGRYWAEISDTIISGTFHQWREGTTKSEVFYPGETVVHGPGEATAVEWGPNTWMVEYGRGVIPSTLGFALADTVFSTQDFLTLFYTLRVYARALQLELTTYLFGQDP
UniProt P41145: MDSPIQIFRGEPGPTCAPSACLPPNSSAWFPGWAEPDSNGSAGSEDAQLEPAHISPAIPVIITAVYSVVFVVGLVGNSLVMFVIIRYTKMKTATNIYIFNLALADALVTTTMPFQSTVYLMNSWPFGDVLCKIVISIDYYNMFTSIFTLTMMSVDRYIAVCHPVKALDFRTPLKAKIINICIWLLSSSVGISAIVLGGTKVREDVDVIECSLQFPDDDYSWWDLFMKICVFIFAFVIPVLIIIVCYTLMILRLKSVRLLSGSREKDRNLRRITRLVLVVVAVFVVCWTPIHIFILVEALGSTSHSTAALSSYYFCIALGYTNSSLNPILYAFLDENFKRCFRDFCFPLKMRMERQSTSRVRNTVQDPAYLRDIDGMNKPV

Key:
[1] = biological target: Delta-type opioid receptor (Homo sapiens, UniProt P41143); experiment: Displacement of [3H]-deltorphine from human delta opioid receptor expressed in CHO-K1 cells at 10 uM by scintillation counting analysis; type: cell-based
[2] = biological target: Kappa-type opioid receptor (Cavia porcellus) (UniProt P41144); experiment: Displacement of [3H]Cl-977 from kappa opioid receptor in guinea pig brain membranes at 10 uM after 2 hrs by scintillation counting analysis; conditions: Membrane
[3] = organism: Cavia porcellus; experiment: Displacement of [3H]-(+)-MK-801 from NMDA receptor PCP binding site in guinea pig brain cortex membranes at 10 uM; type: cell membranes
[4] = biological target: Mu-type opioid receptor (Homo sapiens, UniProt P35372); experiment: Displacement of [3H]-naloxone from human mu opioid receptor expressed in CHO-K1 cells at 10 uM by scintillation counting analysis; type: cell-based
[5] = biological target: Sigma non-opioid intracellular receptor 1 (Cavia porcellus) (UniProt Q60492); experiment: Displacement of [3H]-(+)-pentazocine from sigma-1 receptor in guinea pig brain cortex membranes at 10 uM; type: cell membranes; conditions: Cerebral cortex
[6] = Displacement of [3H]-DTG from sigma-2 receptor in rat liver membrane at 10 uM in presence of (+)-pentazocine; type: cell membranes
[7] = biological target: Kappa-type opioid receptor (Homo sapiens, UniProt P41145); experiment: Agonist activity at human kappa opioid receptor expressed in HEK-293 cells assessed as stimulation of [35S]-GTPgammaS binding at 1 uM after 30 mins by liquid scintillation counting analysis; type: functional, cell-based; conditions: HEK293
Method in brief: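 Membranes from HEK 293 cells expressing human κ receptor. [35S]GTPγS binding was run for 30 min at 30 °C with 1.00% DMSO vehicle. Bound [35S]GTPγS was quantified. Compounds giving under 50% agonist activity at 1 μM were scored not active.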

[8] = tested on: Mus musculus; experiment: Analgesic activity in male NMRI mouse assessed as inhibition of mustard oil-induced visceral pain at 21.5 mg/kg, iv after 5 mins challenged with mustard oil measured after 2 to 12 mins
[9] = tested on: Mus musculus; experiment: Analgesic activity in male iv dosed NMRI mouse assessed as inhibition of mustard oil-induced spontaneous pain response treated after 5 mins challenged with mustard oil measured after 2 to 12 mins
[10] = tested on: Mus musculus; experiment: Analgesic activity in male NMRI mouse assessed as 1 mN von frey filaments-induced referred allodynia at 1 to 10 mg/kg, iv after 5 mins challenged with mustard oil measured after 20 to 40 mins
[11] = tested on: Mus musculus; experiment: Analgesic activity in male NMRI mouse assessed as 16 mN von frey filaments-induced hyperalgesia at 1 to 10 mg/kg, iv after 5 mins challenged with mustard oil measured after 20 to 40 mins

Structure (SMILES) | inhibition [1] [%] | inhibition [3] [%] | inhibition [5] [%] | inhibition [6] [%] | other results
O=C(O)CC(=O)N1CCN(C(=O)Cc2ccc(Cl)c(Cl)c2)C2C(N3CCCC3)CCCC21 (stereo not given) | 7 | 18 | 0 | 4 | inhibition [2]: 41%; inhibition [4]: 19%; Activity [7]: < 50%
CC(=O)N1CCN(C(=O)Cc2ccc(Cl)c(Cl)c2)C2C(N3CCCC3)CCCC21 (stereo not given) | 0 | 0 | 24 | 0 | 
O=C(O)CCC(=O)N1CCN(C(=O)Cc2ccc(Cl)c(Cl)c2)C2C(N3CCCC3)CCCC21 (stereo not given) | 21 | 0 | 0 |  | inhibition [2]: 45%; inhibition [4]: 31%
O=C(Cc1ccc(Cl)c(Cl)c1)N1CCN(Cc2ccccc2)[C@@H]2CCC[C@H](N3CCCC3)[C@H]21 | 39 |  |  |  | 
COC(=O)N1CCN(C(=O)Cc2ccc(Cl)c(Cl)c2)[C@H]2[C@H]1CCC[C@@H]2N1CCCC1 |  |  |  | 0 | 
O=C(Cc1ccc(Cl)c(Cl)c1)N1CCNC2CCCC(N3CCCC3)C21 (racemic) | 10 |  | 3 |  | inhibition [8]: Active
CCC(=O)N1CCN(C(=O)Cc2ccc(Cl)c(Cl)c2)C2C(N3CCCC3)CCCC21 (stereo not given) |  |  |  | 0 | 
CN1CCN(C(=O)Cc2ccc(Cl)c(Cl)c2)C2C1CCCC2N1CCCC1 (stereo not given) | 16 |  | 3 | 3 | 
CCOC(=O)N1CCN(C(=O)Cc2ccc(Cl)c(Cl)c2)C2C(N3CCCC3)CCCC21 (stereo not given) | 32 | 0 | 0 |  | 
O=C(Cc1ccc(Cl)c(Cl)c1)N1CCNC2CCCC(N3CCC(O)C3)C21 (stereo not given) | 0 |  | 4 | 0 | inhibition [9]: Dose-dependent effect; Activity [10]: inactive; Activity [11]: inactive
CN1CCN(C(=O)Cc2ccc(Cl)c(Cl)c2)C2C1CCCC2N1CCC(O)C1 (stereo not given) | 27 |  |  |  | 
